Test results taken from patent publication US11304967B2, “Compounds and compositions for improving power output and oxygen efficiency” (dated 2022).

Columns and labels:
elderly subjects = experiment: Timed Up & Go (TUG) mobility assessment (Example 4); settings: four weeks, treatment group vs placebo group
interval athletes = experiment: Anaerobic capacity: total work over 30 seconds in interval athletes (Example 2)
physically trained men = experiment: 10 minute cycling time-trial after pre-exhaustion, 4 weeks supplementation (Example 1); settings: for VO2/Power ratio / Relative power / Average VO2 / Estimated VO2 max / Absolute power: Test 2 (post treatment), 500 mg daily 4 weeks, n = 19; for VO2/Power ratio: Test 1 pre treatment 0.171; for Relative power: Test 1 pre treatment 4.03; for Average VO2: Test 1 pre treatment 51.09; for Estimated VO2 max: Test 1 pre treatment 57.88; for Absolute power: Test 1 pre treatment 298.04
resistance athletes = experiment: Peak force output in barbell squat, open-label pre-posttest study (Example 3)
[1] = test system: horse skeletal muscle cells (myoblasts); experiment: High Resolution Oxygraphy of mitochondrial respiration (Example 5); settings: 24 h pretreatment, 40 μg/mL

hesperitin-7-rutinoside
Time to perform TUG exercise (elderly subjects): significantly faster
Δ anaerobic capacity, treatment group compared to control group (interval athletes; after 4 weeks of treatment): 3.2 fold
Δ anaerobic capacity (difference after 4 weeks of treatment) (interval athletes; interval athletes, work over 30 seconds, control group 354.6 W): 1146.8 W
Increase of absolute power (physically trained men; 4 weeks of supplementation, trained athletes, within treatment group): 5%
VO2/Power ratio (physically trained men): significantly decreased
VO2/Power ratio (physically trained men; listed as Hesperidin): 0.166
Relative power (physically trained men): significantly increased
Relative power (physically trained men; listed as Hesperidin): 4.23 W/kg
Average VO2 (physically trained men): did not differ significantly
Average VO2 (physically trained men; listed as Hesperidin): 52.01 mL/min/kg
Estimated VO2 max (physically trained men): did not differ significantly
Estimated VO2 max (physically trained men; listed as Hesperidin): 57.87 mL/min/kg
Absolute power (physically trained men): significantly increased
Absolute power (physically trained men; listed as Hesperidin): 312.98 W
Peak force output (resistance athletes; after 4 weeks of supplementation compared to baseline, all subjects): significantly higher
Increase of peak force output compared to baseline (resistance athletes; example 3, as restated): 36%
Proton flow in the mitochondria ([1]; oligomycin-induced): increased
Mitochondrial respiration capacity (routine, Flow, ETS max) ([1]; versus vehicle): clear and significant effect
